# Experimental data from PubChem BioAssay (Tox21).
# Where “and” joins values, the source holds several entries; their conditions need not be identical. Equal values may be shown once. The entries are a selection whose mix differs from that of the whole data set. Inconclusive results are not listed. A call without a number means that no potency is given here. Calls of active or inactive are those of the source. Calls come from the whole dose curve; as a rule, active = well fitted cell-killing curve with a large enough effect in the repeat runs; inconclusive = weak or mixed curves; inactive = flat fitted curve, though single readings scatter.
# Assay: qHTS RealTime-Glo MT Cell Viability Assay in HepG2 cells - 24 hour (AID 1224867); note: nearly all actives have a fitted effect of over 50% in size
# Conditions: RealTime-Glo luminescence; series mostly up to 76.8 µM
# From the text: U.S. Tox21 Program National Center for Advancing Translational Sciences [NCATS] NIH Chemical Genomics Center [NCGC] U.S. Environmental Protection Agency [EPA] National Institutes of Environmental Health Sciences [NIEHS] National Toxicology Program [NTP] U.S. Food and Drug Administration [FDA] Tox21 Assay Overview: Measure of cell viability is critical in the cell-base assay. Analysis of cell viability is necessary for the characterization of cell responses to cytotoxic drugs and environmental stress. A RealTime-Glo MT Cell Viability Assay to monitor cell viability in real time of continues cell culture during 40 hours of compound treatment was used to screen Tox21 10K library compounds in HepG2 cells. The RealTime-Glo MT Cell Viability Assay is a nonlytic, homogeneous, bioluminescent method to measure cell viability in real time using a simple, plate-based method. The assay involves adding NanoLuc luciferase and a cell-permeant prosubstrate to cells in culture. Viable cells reduce the proprietary prosubstrate to generate a substrate for NanoLuc luciferase. This substrate diffuses from cells into the surrounding culture medium, where it is rapidly used by the NanoLuc Enzyme to produce a luminescent signal. The signal correlates with the number of viable cells, making the assay well suited for cytotoxicity studies.
# Tox21 Assay Protocol Summary: The mixture of HepG2 cell suspension and reagents were dispensed at 600cells/6 ul/well in 1536-well tissue culture treated black solid bottom plates using a Multidrop dispenser. After the assay plates were incubated at a 37 C/5% CO2 incubator for 5 hours, 23 nL of compounds dissolved in DMSO, positive and negative controls was transferred to the assay plate by a pintool work station. The plates were incubated at 37 C for 40 hours. The luminescence intensity were measured at 0h, 8h, 16h, 24h, 32h and 40h time points using ViewLux plate reader during compound treatment.
# Potency is the fitted concentration of half-maximal effect.
SMILES,Potency,"activity change, negative = cytotoxicity"
O=[N+]([O-])c1ccc(S(=O)(=O)O)c([N+](=O)[O-])c1,inactive,–
CN(N=O)C(=N)N[N+](=O)[O-],inactive,–
CC(C)CCCCCCCOP(OCCCCCCCC(C)C)Oc1ccccc1,inactive,–
O=P(Cl)(Oc1ccccc1)Oc1ccccc1,inactive,–
O=C1C2CC=CCC2C(=O)N1SC(Cl)(Cl)C(Cl)Cl (configuration not stated),active: 44 µM and active: 4.9 µM,–
O=[P+](Oc1ccccc1)Oc1ccccc1,inactive,–
Cc1cc([N+](=O)[O-])c(O)c([N+](=O)[O-])c1,inactive,–
O=P(Cl)(Cl)c1ccccc1,inactive,–
CN(C(=O)Cc1ccccc1)[C@H]1CC[C@@]2(CCCO2)C[C@@H]1N1CCCC1,inactive,–
CN(C(=O)Cc1ccc(Cl)c(Cl)c1)[C@H]1CC[C@@]2(CCCO2)C[C@@H]1N1CCCC1,inactive,–
CCCCO[P+](=O)OCCCC,inactive,–
NC(=O)Nc1ccc([As](=O)(O)O)cc1,inactive,–
CC(C)OP(=S)(OC(C)C)SCCNS(=O)(=O)c1ccccc1,inactive,–
ClP(Cl)c1ccccc1,inactive,–
COC(=O)Cl,inactive,–
CCOP(=S)(CC)Sc1ccccc1 (configuration not stated),inactive,–
O=[p+]1oc2ccccc2c2ccccc21 (configuration not stated),inactive,–
COP(=S)(Cl)OC,inactive,–
CCCCOP(OCCCC)OCCCC,inactive,–
CN(C(=O)Cc1cccc2occc12)[C@H]1CC[C@@]2(CCCO2)C[C@@H]1N1CCCC1,inactive,–
CCCCC(CC)CO[P+](=O)OCC(CC)CCCC (configuration not stated),inactive,–
CCOC(=O)Cl,inactive,–
CCC(C)(OOC(C)(C)C)OOC(C)(C)C,–,inactive: 0.368% [at 15.8 µM]
CCNC(C)Cc1ccc2c(c1)OCO2 (configuration not stated),inactive,–
O=[N+]([O-])c1ccc([N+](=O)[O-])cc1,inactive,–
O=C(Cl)OCCOC(=O)Cl,inactive,–
O=C(Cl)Oc1ccccc1,inactive,–
